Measurements from patent US8835501B2, “Pharmaceutical formulations of HDAC inhibitors” (TopoTarget UK Limited, priority 2005, dated 2014).

Assays:
[1] = Phase solubility for arginine and meglumine
[2] = Solubility enhancement with acidic and basic in situ salt formers (~0.16 M)

Row | SMILES | parts of salt former required to dissolve 1 part of HDACi (PXD-101) [1] | pH of saturated HDACi solution ([1]; basic salt ×0.5, 0.079 M) | pH of Solution ([2]; PXD-101 in basic in situ salt former) | pH of Solution ([2]; PXD-101 in acidic in situ salt former)
1 | CNC[C@H](O)[C@@H](O)[C@H](O)[C@H](O)CO [Meglumine, 1-deoxy-1-(methylamino)-D-glucitol] | approximately 1.6 parts | 9.22 | 9.22 | 
2 | CS(=O)(=O)O [Methanesulphonic Acid] |  |  |  | 1.35
